The entries are a selection whose mix differs from that of the whole data set. Records with an inconclusive call do not appear. Activity calls are given as the source filed them. Calls come from the whole dose curve; as a rule, active = well fitted cell-killing curve with a large enough effect; inconclusive = small, poorly fitted or top-dose-only effect; inactive = no such curve, though single readings can be large or run the other way.
assay: qHTS Screen for Compounds that Selectively Target Cancer Cells with p53 Mutations: Cytotoxicity of p53ts Cells at the Nonpermissive Temperature; details: H1299-p53A138V viability at 39C, ATP luminescence, 24 h; at 46.1 µM (top of the series); note: nearly all actives have a fitted effect of over 55% in size
% is set by controls: 0 for no effect and ±100 for the full control effect.

Row | Structure (SMILES) | activity change, negative = cell killing
1 | O=[N+]([O-])C(Cl)(Cl)Cl | inactive: 8.04%
